The source of these data is PubChem BioAssay AID1469 (National Center for Advancing Translational Sciences (NCATS), 2008).

Chains of the proteins cited; added tags and fusions are not shown.
UniProt P10828, whole entry: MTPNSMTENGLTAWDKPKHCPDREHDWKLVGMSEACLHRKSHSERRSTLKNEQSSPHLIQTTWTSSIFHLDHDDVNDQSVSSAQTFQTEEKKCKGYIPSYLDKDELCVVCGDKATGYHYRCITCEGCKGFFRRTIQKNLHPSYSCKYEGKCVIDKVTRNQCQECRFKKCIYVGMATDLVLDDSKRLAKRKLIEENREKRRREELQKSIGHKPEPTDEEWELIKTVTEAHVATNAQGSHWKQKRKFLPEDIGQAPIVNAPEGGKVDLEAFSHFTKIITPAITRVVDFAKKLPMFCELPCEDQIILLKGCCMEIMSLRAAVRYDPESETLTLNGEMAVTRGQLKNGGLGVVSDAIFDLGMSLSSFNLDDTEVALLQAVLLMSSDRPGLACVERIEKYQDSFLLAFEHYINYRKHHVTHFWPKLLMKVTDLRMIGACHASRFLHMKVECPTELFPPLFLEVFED

This is a selection; strong and weak results do not stand in their true shares. Some of these compounds have results that are not shown, active ones among them. Activity calls are given as the source filed them. The call rests on the fitted dose curve; in most records, active means well fitted inhibition curve with a large enough effect; inconclusive means small, poorly fitted or top-dose-only effect, or effect the other way; inactive means flat fitted curve, though single readings scatter.

In this test the target is Thyroid hormone receptor beta (Homo sapiens) (UniProt P10828). In words: qHTS for Inhibitors of the Interaction of Thyroid Hormone Receptor and Steroid Receptor Coregulator 2.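 Further: plate controls were bound peptide for no effect and peptide without receptor for full effect; nearly all actives have a fitted effect of over 50% in size.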 To be noted: TRbeta-SRC2 peptide binding, fluorescence polarization, receptor liganded with 1 µM T3; at 106 µM (top of the series). An excerpt:
NIH Molecular Libraries Probe Production Network [MLPCN]
NIH Chemical Genomics Center [NCGC]
Assay Provider: R. Kip Guy, St. Jude Children's Research Hospital
Thyroid receptor (TR) regulates many homeostatic processes including basal metabolism, cardiovascular function, body weight, and lipid trafficking. TR modulators are potential therapeutics for obesity and hyperlipidemias but current thyroid analogs have undesirable side effects, particularly cardiac stimulation. To identify inhibitors that specifically prevent the interaction of TR with the steroid receptor coregulator 2 (SRC2), a fluorescence polarization assay was screened. This assay detects interaction of the ligand-binding domain of human TRb with a Texas Red labeled SRC2 peptide, corresponding to a 20 amino acid region of the nuclear receptor interaction domain (Arnold et al., 2006). Small molecule inhibitors that block the interaction of TR and SRC2 are detected by a decrease in fluorescence polarization.
Arnold, L. A.; Estebanez-Perpina, E.; Togashi, M.; Shelat, A.; Ocasio, C. A.; McReynolds, A. C.; Nguyen, P.; Baxter, J. D.; Fletterick, R. J.; Webb, P.; Guy, R. K. A high-throughput screening method to identify small molecule inhibitors of thyroid hormone receptor coactivator binding. Sci STKE 2006, p 13.
NCGC Assay Protocol Summary:
For screening, 5 uL/well 0.6 uM TRb and 20 nM SRC2 Texas Red in protein buffer (20mM Tris hydrochloride, 100mM NaCl, 10% glycerol, 1mM EDTA, 0.01% NP-40, 1mM DTT, 1uM T3 and 5% DMSO) was dispensed into black solid 1536-well plates (Grenier) using a solenoid-based dispenser. Following transfer of 23 nL compound or DMSO vehicle by a pin tool, the plates were centrifuged 15 s at 1000 RPM and incubated 5 hr at ambient temperature. […] Data were normalized to unbound (all components except TRb) and bound SRC2 Texas Red controls. In this assay, we provide % activity data for each concentration as well as potencies for the active compounds.
Keywords: NIH Roadmap, MLPCN, MLI, MLSMR, qHTS, NCGC, qHTS, thyroid hormone receptor, steroid receptor coactivator, fluorescence polarization
With `CCCCOc1ccccc1C(=O)NCC1(N(C)C)CCCCC1`, the activity change, negative = inhibition is inactive: 2.21%.

As to `CN(C)C1CCCC1OC(=O)C(O)(c1ccccc1)c1ccccc1` (stereo not given), the activity change, negative = inhibition is inactive: 10.3%.

As for `Cc1ccccc1C(=O)NCC1(N2CCCCC2)CCCCC1`, the activity change, negative = inhibition was inactive: 1.37%.

As to `CN(C)C1(CNC(=O)c2ccccc2[N+](=O)[O-])CCCCC1`, the activity change, negative = inhibition is inactive: 1.09%.

Take `CCN1CCCC(OC(=O)C2(O)c3ccccc3C=Cc3ccccc32)C1` (stereo not given): the activity change, negative = inhibition was inactive: -1.88%.

For `CCOc1cccc(C(=O)NCC2(N(C)C)CCCCC2)c1`, the activity change, negative = inhibition is inactive: -5.99%.

On to `O=C(NCC1(N2CCCCC2)CCCCC1)c1cc([N+](=O)[O-])ccc1Cl`, for which the activity change, negative = inhibition is inactive: -1.12%.

As for `CN(C)C1(CNC(=O)c2ccccc2F)CCCCC1`, the activity change, negative = inhibition was inactive: -7.23%.

For `CCN(CC)CC(C)C(C)OC(=O)C(O)(c1ccccc1)c1ccccc1` (stereo not given), the activity change, negative = inhibition is inactive: 3.16%.

On to `CN(C)C1(CNC(=O)c2cccc(Cl)c2)CCCCC1`, for which the activity change, negative = inhibition is inactive: -7.65%.

Regarding `CC(C)COc1ccc(C(=O)NCC2(N(C)C)CCCCC2)cc1`, the activity change, negative = inhibition was inactive: -5.58%.

Regarding `O=C(OC1CN2CCC1CC2)C(CO)(c1ccccc1)c1ccccc1` (stereo not given), the activity change, negative = inhibition is inactive: -10.5%.

Consider `COc1cccc(C(=O)NCC2(N3CCOCC3)CCCCC2)c1`, for which the activity change, negative = inhibition is inactive: -7.04%.

With `CN(C)c1cccc(C(=O)NCC2(N(C)C)CCCCC2)c1`, the activity change, negative = inhibition is inactive: -9.51%.

For the compound `CC(C)Oc1ccc(C(=O)NCC2(N(C)C)CCCCC2)cc1`, the activity change, negative = inhibition is inactive: 2.07%.

Turning to `COc1ccc(Br)c(C(=O)NCC2(N3CCCCC3)CCCCC2)c1`, the activity change, negative = inhibition was inactive: -1.65%.

With `Cc1cccc(C(=O)NCC2(N(C)C)CCCCC2)c1`, the activity change, negative = inhibition is inactive: 3.3%.

Consider `COc1cc(C(=O)NCC2(N(C)C)CCCCC2)cc(OC)c1OC`, for which the activity change, negative = inhibition was inactive: -0.297%.

As to `COc1ccc(C(=O)NCC2(N(C)C)CCCCC2)cc1Cl`, the activity change, negative = inhibition is inactive: -3.15%.

For the compound `COc1cccc(C(=O)NCC2(N3CCCCC3)CCCCC2)c1`, the activity change, negative = inhibition is inactive: 1.63%.
